# Test results reported in Sander's compilation of Henry's law constants (doi:10.1098/rspb.1975.0059).
# Test: Henry solubility constant Hcp at 293 K (mol/(m3 Pa))
# Conditions: reference: Pearson and McConnell (1975)
compound,measurement,value
CCl [chloromethane],Henry solubility constant Hcp at 293 K,0.0014
